Literature values as cited in patent US20230220377A1, “SINGLE CELL ANALYSIS” (BioSkryb Genomics, Inc., priority 2019, published 2023).

Tested on: FLT3
Settings: relapsed or refractory AML patients; monotherapy with FLT3 inhibitor

CC(C)(C)c1cc(NC(=O)Nc2ccc(-c3cn4c(n3)sc3cc(OCCN5CCOCC5)ccc34)cc2)no1 [quizartinib]
composite complete remission: approximately 50%
